Data reported in PubChem BioAssay AID504331 (Broad Institute, 2011).
The entries are a selection whose mix differs from that of the whole data set. Calls of active or inactive are those of the source.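 The calls were made as follows: active = compounds that lower cell viability with a fitted AC50 at most ten times their top valid dose; inconclusive = flat fit showing 30 to 70 percent loss, or poor fit; inactive = the rest.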

Test: U2OS reporter cell viability with added iron – iron-supplemented medium, dry powder, cytotoxicity control for HIF pathway activator project, dose response (AID 504331)
Conditions: U2OS HRE-luc cells viability, CellTiter-Glo luminescence; at 38 µM (top of the series)
Summary of the method: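 system = human U2OS osteosarcoma cells with 3xHRE-driven luciferase reporter | quantity = 6,000 cells per well | buffer or medium = phenol red-free DMEM, 10% FBS, 50 µM final ferric nitrate | dosing = 8 concentrations, 3-fold dilution steps | times = cells plated 24 h before dosing, 24 h compound exposure at 37 °C | technique = viability luminescence, CellTiter-Glo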

O=c1[nH]c2ccccc2n1C1CCN(Cc2ccc(O)c3ncccc23)CC1
activity change, negative = cytotoxicity: inactive: -8.16%
